Earlier results, collected in article PMC3858179 (2008).

Target: T1, T. gondii DHFR (Toxoplasma gondii, UniProt Q07422)
T1 sequence (Q07422 1-610): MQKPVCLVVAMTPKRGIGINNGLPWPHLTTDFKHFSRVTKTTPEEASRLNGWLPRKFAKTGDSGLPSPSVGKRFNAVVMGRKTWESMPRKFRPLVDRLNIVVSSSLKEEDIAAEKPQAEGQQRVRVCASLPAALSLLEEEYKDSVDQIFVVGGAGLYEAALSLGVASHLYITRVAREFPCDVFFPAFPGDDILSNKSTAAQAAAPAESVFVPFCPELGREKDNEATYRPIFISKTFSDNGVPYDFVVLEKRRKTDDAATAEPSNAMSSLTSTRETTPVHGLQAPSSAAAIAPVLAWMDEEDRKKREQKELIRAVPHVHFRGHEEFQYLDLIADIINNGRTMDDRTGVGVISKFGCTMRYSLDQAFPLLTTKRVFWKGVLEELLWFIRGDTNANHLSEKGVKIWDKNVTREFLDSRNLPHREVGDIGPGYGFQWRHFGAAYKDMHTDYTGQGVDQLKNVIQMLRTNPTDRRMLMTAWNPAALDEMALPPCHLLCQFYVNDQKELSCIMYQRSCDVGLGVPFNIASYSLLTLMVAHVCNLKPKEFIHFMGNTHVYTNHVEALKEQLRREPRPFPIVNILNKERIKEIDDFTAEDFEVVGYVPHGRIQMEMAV
Settings: cited from earlier work

Which “fold more potent than 10 (T. gondii DHFR)” value does the source give for COc1ccc(OC)c(Sc2[nH]c3nc(N)nc(N)c3c2C)c1 [Compound 6] here?
Its value is 19 fold.

And the “fold more potent than TMP against T. gondii DHFR” value?
Its value is 16 fold.
